Compound activity (PubChem BioAssay)
PglD inh: PglD (C. jejuni) enzyme inhibition | AID 602405 | 0.098% of 360,000 active | purified PglD enzyme, DTNB colorimetric CoA detection | inhibition, % at 12.5 µM; in the data active = inhibition above about 16%, passing the limit was not always enough
INS-1E GSIS act: primary screen for activators of insulin secretion dependent on glucose, INS-1E cells, GLuc reporter luminescence; INS-1E GLuc reporter insulin secretion, 2-3 h; activation, % at 16.6 µM; 0.61% of 370,000 active; AID 743287;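 active = lowest replicate activation of at least 40%, so every replicate reaches that level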
RAD54 inh: inhibitors of human RAD54 branch migration; RAD54 Holliday junction branch migration, FAM/BHQ fluorescence; 0.14% of 360,000 active; Q92698; inhibition, % at 10.4 µM;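 active = mean normalized replicate activity at least 40 and at least half of replicates scoring 40 or more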;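 note: inhibitors cause a drop in the FAM fluorescence signal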
Casp6 inh: blocks human caspase-6 cleavage activity. P55212. purified caspase-6, Z-VEID-R110 cleavage fluorescence. inhibition, % at 12.5 µM. 0.53% of 350,000 active. AID 686996;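 active = mean inhibition across replicates at least about 35%, with every replicate also reaching that limit, limit read from the data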
Yeast UUG start: modulators of start codon recognition fidelity in yeast. S. cerevisiae UUG-firefly luciferase reporter, luminescence/redox ratio. activity score, % at 18.7 µM. 0.13% of 350,000 active. AID 602363;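 active = replicate mean at a twofold rise or more, about +100% in these data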;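 also: firefly luciferase made from a UUG start codon reports start codon fidelity; reporter light over untreated wells divided by growth signal over untreated wells; some hits fall short of that in this replicate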
RAD52 anneal inh: RAD52 (human) annealing inhibition; 0.46% of 360,000 active; inhibition, % at 18.7 µM; P43351; recombinant RAD52 DNA annealing, FRET fluorescence;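 active = every replicate showing at least 50% inhibition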
Of the large screens only hits and unclear results are named; the others gave an inactive call. Most compounds without a hit are left out; they make up all but 1.5% or so of the library.

CC(C)c1ccc(NC2CCCN(C(=O)c3cccnc3)C2)cc1 (configuration not stated)	INS-1E GSIS act 75.5
Cc1ccc(NC2CCCN(C(=O)c3cccnc3)C2)cc1C (configuration not stated)	none
O=C(NC[C@H]1CC[C@H]2[C@H](CN2Cc2cccc(Cl)c2)O1)C1CCC1	RAD52 anneal inh 66.9 (no result: PglD inh, INS-1E GSIS act, RAD54 inh, Yeast UUG start)
COc1cc2cnc(-c3cccnc3)cc2cc1OC	INS-1E GSIS act 61.6
O=C(O)c1ccc(-n2cncn2)c([N+](=O)[O-])c1	none
Cc1cc(C)c(S(=O)(=O)NCC(CCC(=O)O)C(F)(F)F)c(C)c1 (configuration not stated)	none
CCc1c(C)c2ccc(O)c(CN(C)C)c2oc1=O	none (no result: INS-1E GSIS act, Casp6 inh, RAD52 anneal inh)
C[C@@H]1CCCCO[C@H](CN(C)S(=O)(=O)c2cccs2)[C@H](C)CN([C@H](C)CO)C(=O)c2cc(NC(=O)CCCN(C)C)ccc2O1	none
COc1ccc2c(C)c(CC(=O)N3CCN(C(=O)C4COc5ccccc5O4)CC3)c(=O)oc2c1C (configuration not stated)	none
O=C(C(=O)N(C1CCCCC1)C1CCCCC1)c1ccccc1	INS-1E GSIS act 72.8 (no result: PglD inh, RAD54 inh, Yeast UUG start)
O=C(NCc1ccccc1)c1ccc(C(=O)N(C2CCCCC2)C2CCCCC2)cc1	none (no result: INS-1E GSIS act, Casp6 inh, RAD52 anneal inh)
O=C(CN(C1CCCCC1)S(=O)(=O)c1ccc(F)cc1)NC1CC1	none
Oc1cccc2c(NC(=S)Nc3ccc(OC(F)F)cc3)cccc12	Casp6 inh 80.6 (no result: PglD inh, RAD54 inh, Yeast UUG start)
FC(F)Oc1ccc(NC(=S)NCc2ccccc2)cc1	none (no result: PglD inh, INS-1E GSIS act, RAD54 inh, Yeast UUG start)
COc1ccc(CCC(=O)Nc2ccc(S(=O)(=O)Nc3nccc(C)n3)cc2)cc1	Casp6 inh 58.1
Cc1ccnc(NS(=O)(=O)c2ccc(NC(=O)CCc3ccccc3)cc2)n1	INS-1E GSIS act 41.9
COc1ccc(CCC(=O)Nc2ccc(S(=O)(=O)Nc3ncccn3)cc2)cc1	none
O=C(CSc1ccccc1)N1CCN(c2ccccc2)CC1	none (no result: INS-1E GSIS act, Casp6 inh, RAD52 anneal inh)
CCNc1nc(NCC)nc(Nn2cnnc2)n1	INS-1E GSIS act 56.3
CCNc1nc(NC(C)(C)C)nc(N(CC)n2cnnc2)n1	none (no result: INS-1E GSIS act, Casp6 inh, RAD52 anneal inh)
CC(C)c1nnc2n1N=C(c1ccc(Cl)cc1)CS2	none (no result: INS-1E GSIS act)
Cc1ccc(-n2nc(-c3ccccc3)cc2Nc2ccccc2N)cc1	none (no result: PglD inh, RAD54 inh, Yeast UUG start)
CN(C)C(=O)c1ccc(-c2ccc([C@@H]3[C@@H](CO)N4C(=O)CN(C(=O)C5CC5)C[C@@H]34)cc2)cc1	INS-1E GSIS act 66.5 (no result: PglD inh, RAD54 inh, Yeast UUG start)
CCC(C)C(=O)Nc1ccc([N+](=O)[O-])cc1OC (configuration not stated)	none
Cc1cc(C)cc(NC(=O)Cc2ccc(S(=O)(=O)N3CCCC3)s2)c1	Casp6 inh 51.1
O=C1c2ccccc2C(=O)N1CC1c2ccccc2CCN1S(=O)(=O)c1cnc[nH]1 (configuration not stated)	none (no result: INS-1E GSIS act, Casp6 inh, RAD52 anneal inh)
CCC(Sc1nncn1C)C(=O)Nc1nnc(-c2ccccc2Cl)s1 (configuration not stated)	none (no result: INS-1E GSIS act)
O=c1cc(-c2ccncc2)oc2c1ccc1ccccc12	INS-1E GSIS act 46.9
Nc1ccc(C(=O)N/N=C/c2sc(N3CCOCC3)nc2-c2ccccc2)cc1	none
O=C(O)c1cccc(N/N=C/c2sc(N3CCOCC3)nc2-c2ccccc2)c1	INS-1E GSIS act 41.5 (no result: PglD inh, Casp6 inh, RAD52 anneal inh)
Cc1cc(C(=O)Nc2cccc(O)c2)c(C)o1	INS-1E GSIS act 56.9 (no result: Casp6 inh, RAD52 anneal inh)
Cc1ccn2c(=O)nc(SCC(=O)N3CCC(C)CC3)nc2c1	Casp6 inh 52.2
CC1CCN(C(=O)CSc2nc(=O)n3cc(Cl)ccc3n2)CC1	INS-1E GSIS act 78.5 (no result: PglD inh, RAD54 inh, Yeast UUG start)
Cc1ccc(-c2nnc3sc(-c4ccncc4)nn23)cc1	INS-1E GSIS act 67.5 (no result: Casp6 inh, RAD52 anneal inh)
COCCCNC(=O)C(=O)NCC(c1ccco1)N1CCN(c2ccc(OC)cc2)CC1 (configuration not stated)	INS-1E GSIS act 49.6
O=C(NCCC1=CCCCC1)C(=O)NCC(c1ccco1)N1CCN(c2ccccc2)CC1 (configuration not stated)	INS-1E GSIS act 125.9 (no result: PglD inh, RAD54 inh, Casp6 inh, Yeast UUG start, RAD52 anneal inh)
CN(c1ccccc1)c1nc(N)c([N+](=O)[O-])c(N2CCOCC2)n1	INS-1E GSIS act 45.3 (no result: PglD inh, RAD54 inh, Yeast UUG start)
CN(c1ccccc1)c1nc(N)c([N+](=O)[O-])c(N2CCCC2)n1	none
COC(=O)CSc1nc2ccccc2nc1SCC(=O)OC	INS-1E GSIS act 66.9 (no result: Casp6 inh, RAD52 anneal inh)
COC(=O)CSc1cnc2ccccc2n1	none (no result: INS-1E GSIS act, Casp6 inh, RAD52 anneal inh)
CC(C)c1ccc2oc(=O)cc(CN3CCCCC3)c2c1	INS-1E GSIS act 44.0
CC1CCN(Cc2cc(=O)oc3ccc(C(C)C)cc23)CC1	none
CC(C)C(=O)C1=Cc2cccc([N+](=O)[O-])c2OC1N1CCOCC1 (configuration not stated)	Casp6 inh 37.1 (no result: INS-1E GSIS act)
CCOC(=O)C1=C(CN2CCSCC2)NC(=O)NC1c1ccc2c(c1)OCO2 (configuration not stated)	none
CC(C)NC(=O)C1(C)CN(S(C)(=O)=O)CC(=O)N1CCCN1CCOCC1 (configuration not stated)	INS-1E GSIS act 43.7 (no result: PglD inh, RAD54 inh, Yeast UUG start)
C[C@H](CO)N1C[C@H](C)[C@@H](CN(C)Cc2ccc(Oc3ccccc3)cc2)Oc2ccc(NC(=O)CCCN(C)C)cc2CC1=O	RAD52 anneal inh 57.4
C[C@@H]1CN([C@@H](C)CO)C(=O)Cc2cc(NC(=O)CCCN(C)C)ccc2O[C@H]1CN(C)Cc1ccc(Oc2ccccc2)cc1	RAD52 anneal inh 91.0
C/C(=N\N=C1\NC(=O)C(Cc2ccccc2)S1)c1ccccc1 (configuration not stated)	none (no result: PglD inh, RAD54 inh, Yeast UUG start)
COc1ccc(C(=O)NCC(=O)OCC(=O)NC(=O)c2ccc(C(C)(C)C)cc2)cc1OC	none
COc1ccc(C(=O)NCC(=O)OCC(=O)Nc2sccc2C#N)cc1OC	INS-1E GSIS act 50.7 (no result: PglD inh, RAD54 inh, Yeast UUG start)
CCOC(=O)NC(=O)COC(=O)CNC(=O)c1ccc(OCC)c(OCC)c1	INS-1E GSIS act 45.6 (no result: PglD inh, RAD54 inh, Yeast UUG start)
CN1CCN(S(=O)(=O)c2ccc(Sc3nc4ccccc4[nH]3)c3nsnc23)CC1	none (no result: INS-1E GSIS act, Casp6 inh, RAD52 anneal inh)
COc1ccc(S(=O)(=O)/N=C2/NC(=O)/C(=C/c3ccco3)S2)cc1	Casp6 inh 62.4 (no result: PglD inh, INS-1E GSIS act, RAD54 inh, Yeast UUG start)
CCC(CC)C(=O)Nc1cccc(C(=O)NCCc2ccc(S(N)(=O)=O)cc2)c1	none (no result: Casp6 inh, RAD52 anneal inh)
COc1ccccc1N=Nc1ccc(O)c2ncccc12	Casp6 inh 53.9
CCS(=O)(=O)c1ccc(N=Nc2ccc(O)c3ncccc23)c(OC)c1	none (no result: PglD inh, RAD54 inh, Casp6 inh, Yeast UUG start)
CCN(c1ccccc1)c1nc(Cl)nc2c1cnn2C	INS-1E GSIS act 45.6
CC(C)Cc1nc2n[nH]c(N)c2c2c1COC(C)(C)C2	INS-1E GSIS act 80.2 (no result: PglD inh, RAD54 inh, Casp6 inh, Yeast UUG start, RAD52 anneal inh)
O=C(COc1ccc(Cl)cc1Br)OCC(=O)c1ccc[nH]1	Casp6 inh 37.7 (no result: INS-1E GSIS act)
COc1ccc(NC(=O)/C(C#N)=C/c2ccc(-c3ccccc3C(=O)O)o2)cc1	none
COc1ccc(NC(=O)/C(C#N)=C\c2ccc(Br)o2)cc1	Casp6 inh 44.5 (no result: PglD inh, RAD54 inh, Yeast UUG start)
CN(C)CC(=O)NC[C@H]1N[C@@H](CO)[C@H]1c1ccc(-c2cccc(C#N)c2)cc1	RAD52 anneal inh 51.3
CCC(=O)NC[C@@H]1N[C@@H](CO)[C@H]1c1ccc(-c2cccc(C#N)c2)cc1	none
